Where two headings read alike, the source gives them in different places.
Tested on: mTORC1 activity (pS6) in Tsc2-sh hippocampal neurons
Assay: mTORC1 high-content screen (mTORC1^HCA) with the Biomol collection library
[1] = Z-score of percent GFP+pS6+ neurons in compound-treated Tsc2-knockdown wells, DIV20, Biomol library, replica 1
[2] = Z-score of percent GFP+pS6+ neurons in compound-treated Tsc2-knockdown wells, DIV20, Biomol library, replica 2
[3] = Z-score of percent GFP+pS6+ neurons in compound-treated Tsc2-knockdown wells, DIV20, Biomol library screen, replica 1
[4] = Z-score of percent GFP+pS6+ neurons in compound-treated Tsc2-knockdown wells, DIV20, Biomol library screen, replica 2

## CCCNC(=O)[C@H]1O[C@@H]1C(=O)N[C@H](C(=O)N1CCC[C@H]1C(=O)OC)[C@@H](C)CC [CA-074-Me]
  T2 Zscore (Replica 1): 1.644
  T2 Zscore (Replica 2): 0.9259

## O=C(O)c1cc(N(Cc2ccccc2O)Cc2cc(O)ccc2O)ccc1O [Lavendustin A]
  T2 Zscore (Replica 1): 0.5301
  T2 Zscore (Replica 2): −0.1145

## CO/C1=C\C(C)=C\[C@@H](C)[C@@H](O)[C@@H](C)C/C(C)=C/C=C/[C@H](OC)[C@@H]([C@@H](C)[C@@H](O)[C@H](C)[C@@]2(O)C[C@@H](O)[C@H](C)[C@@H](C(C)C)O2)OC1=O [Bafilomycin A1]
  T2 Zscore (Replica 1): 0.3441
  T2 Zscore (Replica 2): 1.894

## CCCCCCCCCCCCC/C=C/[C@@H](O)[C@H](CO)NC(=O)CCCCCCC [C8 Ceramide]
  T2 Zscore (Replica 1): 0.0936
  T2 Zscore (Replica 2): 1.008

## N#CC(=Cc1ccc2[nH]ccc2c1)C(N)=C(C#N)C#N [AG-370]
  T2 Zscore (Replica 1): −3.069
  T2 Zscore (Replica 2): −1.459

## COc1ccc(CCN(C)CCCC(C#N)(c2cc(OC)c(OC)c(OC)c2)C(C)C)cc1OC.Cl (stereo not drawn) [Methoxyverapimil • HCl]
  T2 Zscore (Replica 1): 0.5721
  T2 Zscore (Replica 2): 0.2991

## CCCCC[C@H](O)/C=C/[C@H]1C(=O)C[C@H](O)[C@@H]1C/C=C\CCCC(=O)O [Prostaglandin D2]
[1]
  T2 Zscore (Replica 1): 0.7735
[2]
  T2 Zscore (Replica 2): 1.618

## Clc1cccc(Nc2nnc(-c3ccccc3)c3ccccc23)c1 [MY-5445]
  T2 Zscore (Replica 1): −1.029
  T2 Zscore (Replica 2): −1.798

## O=C1C(SCCO)=C(SCCO)C(=O)c2ccccc21 [NSC-95397]
  T2 Zscore (Replica 1): −1.928
  T2 Zscore (Replica 2): −1.51

## CCCCCCCCCCCCCCC[C@H](O)[C@@H](N)CO (racemic) [DL-Dihydrosphingosine]
[1]
  T2 Zscore (Replica 1): 1.976
[2]
  T2 Zscore (Replica 2): 1.253

## Calphostin C
  T2 Zscore (Replica 1): −2.289
  T2 Zscore (Replica 2): −1.269

## CCCCC[C@H](O)/C=C/[C@@H]1[C@@H](C/C=C\CCCC(=O)O)[C@@H](O)C[C@@H]1O [9a, 11b-Prostaglandin F2]
  T2 Zscore (Replica 1): 0.356
  T2 Zscore (Replica 2): −0.1986

## C=C1[C@@H](C)[C@H]2[C@H](Cc3ccccc3)NC(=O)[C@]23[C@H](OC(C)=O)/C=C/[C@@](C)(O)C(=O)[C@@H](C)C/C=C/[C@H]3[C@@H]1O [Cytochalasin D]
  T2 Zscore (Replica 1): 0.7319
  T2 Zscore (Replica 2): 0.02458

## NCCc1c[nH]c2ccc(O)cc12 [Serotonin]
[1]
  T2 Zscore (Replica 1): 0.8367
[2]
  T2 Zscore (Replica 2): 0.9264

## N#C/C(=C\c1ccc(O)c(O)c1)C(=O)OC/C=C/c1ccccc1 [CDC]
  T2 Zscore (Replica 1): 0.2338
  T2 Zscore (Replica 2): −0.5378

## CCCCC[C@H](O)/C=C/C=C\C=C\C=C\[C@@H](O)[C@@H](O)CCCC(=O)O [Lipoxin A4]
[3]
  T2 Zscore (Replica 1): 1.262
[4]
  T2 Zscore (Replica 2): 0.3044

## CCCCCCCCCCCCC/C=C/[C@@H](O)[C@H](CO)NCCCCCCCC [C8 Ceramine]
  T2 Zscore (Replica 1): 0.4948
  T2 Zscore (Replica 2): 0.05838

## COc1cc(CNC(=O)CCCC/C=C/C(C)C)ccc1O [E-Capsaicin]
  T2 Zscore (Replica 1): −1.628
  T2 Zscore (Replica 2): 0.5971

## CCCCCCCCCC(=O)OCC(CO)OC(=O)CCCCCCCCC (stereo not drawn) [1,2-Didecanoyl-glycerol (10:0)]
  T2 Zscore (Replica 1): 1.059
  T2 Zscore (Replica 2): −0.4534

## O=C1Nc2ccc(I)cc2/C1=C/c1cc(Br)c(O)c(Br)c1 [GW-5074]
  T2 Zscore (Replica 1): 0.4102
  T2 Zscore (Replica 2): 0.5957

## C/C1=C/C(=O)O[C@@H]2C[C@@H](CC[C@H](C)/C=C\CC1)O[C@@](O)([C@@H]1CSC(=O)N1)C2 [Latrunculin B]
  T2 Zscore (Replica 1): −0.2506
  T2 Zscore (Replica 2): 0.8419

## O=c1[nH]c2ccccc2c2ccccc12 [6(5H)-Phenanthridinone]
[3]
  T2 Zscore (Replica 1): −0.1416
[4]
  T2 Zscore (Replica 2): 0.436

## O=S(=O)(c1cccc2c(I)cccc12)N1CCCNCC1 [ML7]
  T2 Zscore (Replica 1): 0.811
  T2 Zscore (Replica 2): 0.03825

## CC1(C)Oc2ccc(C#N)cc2[C@@H](OC2=CC(=O)CC2)[C@@H]1O [PCO-400]
  T2 Zscore (Replica 1): 0.7699
  T2 Zscore (Replica 2): 1.481

## CCCCC/C=C\C/C=C\C/C=C\C=C\[C@@H](O)CCCC(=O)O [5(S)-HETE]
  T2 Zscore (Replica 1): 0.2342
  T2 Zscore (Replica 2): −0.2258

## CCCCC/C=C\C/C=C\C/C=C\C/C=C\CCCCCC(=O)NCCO [Anandamide (22:4,n-6)]
  T2 Zscore (Replica 1): 0.7562
  T2 Zscore (Replica 2): 0.2051

## CCCCC(C)(C)C(O)C=CC1C(O)CC(=O)C1CC=CCCCC(=O)O (stereo not drawn) [16,16-Dimethyl-prostaglandin E2]
[3]
  T2 Zscore (Replica 1): 0.605
[4]
  T2 Zscore (Replica 2): −0.1035

## CNC(=O)[C@H]1O[C@@H](n2cnc3c(NCc4cccc(I)c4)ncnc32)[C@H](O)[C@@H]1O [IB-MECA]
[3]
  T2 Zscore (Replica 1): 1.327
[4]
  T2 Zscore (Replica 2): −0.3278

## NC1CCc2cc(O)c(O)cc2C1 (stereo not drawn) [6,7-ADTN]
  T2 Zscore (Replica 1): 0.4884
  T2 Zscore (Replica 2): −0.2632

## CC(=O)OCOC(c1cc([N+](=O)[O-])ccc1Oc1ccc(Br)cc1)P(=O)(OCOC(C)=O)OCOC(C)=O (stereo not drawn) [RWJ-60475-(AM)3]
  T2 Zscore (Replica 1): 0.1868
  T2 Zscore (Replica 2): 1.381

## O=C(Nc1ccccc1)c1cc([N+](=O)[O-])ccc1Cl [GW-9662]
  T2 Zscore (Replica 1): −0.02422
  T2 Zscore (Replica 2): −0.2273

## COc1cc2ncnc(Nc3cccc(Cl)c3)c2cc1OC [AG1478]
  T2 Zscore (Replica 1): 0.1566
  T2 Zscore (Replica 2): −1.114

## CCCCCCCCCCCCCCCC(=O)N[C@H](CN1CCOCC1)[C@H](O)c1ccccc1 (racemic) [DL-PPMP]
  T2 Zscore (Replica 1): 0.4795
  T2 Zscore (Replica 2): 0.4289

## Cc1ccc(S(=O)(=O)N[C@@H](Cc2ccccc2)C(=O)CCl)cc1 [Tosyl-Phe-CMK (TPCK)]
  T2 Zscore (Replica 1): 0.8292
  T2 Zscore (Replica 2): 0.4999

## CCCCCCCCCCCCCCCCOC[C@H](COP(=O)([O-])OCC[N+](C)(C)C)OC(C)=O [PAF C16]
  T2 Zscore (Replica 1): −0.6055
  T2 Zscore (Replica 2): −0.5014

## CCCCCCCCCCCCCCCC(=O)N[C@@H](COP(=O)(O)O)C(=O)O [L-NASPA]
  T2 Zscore (Replica 1): −0.2267
  T2 Zscore (Replica 2): −0.3736

## CO[C@H](C/C=C\C=C\CC/C=C/C[C@H](C)/C=C/C(=C\C(=O)O)CC(=O)O)/C(C)=C\C=C(/C)C(=O)O [Bongkrekic acid]
  T2 Zscore (Replica 1): −0.2324
  T2 Zscore (Replica 2): 1.063

## CCCC[C@@H](C=O)NC(=O)[C@H](CC(C)C)NC(=O)OCc1ccccc1 [Calpeptin]
[3]
  T2 Zscore (Replica 1): 1.453
[4]
  T2 Zscore (Replica 2): 0.01864

## Cl.NC(=NCc1ccc(Cl)c(Cl)c1)NC(=O)c1nc(Cl)c(N)nc1N [Diehlorobenzamil • HCl]
  T2 Zscore (Replica 1): 0.3744
  T2 Zscore (Replica 2): −0.06006

## NCCc1c[nH]cn1 [Histamine]
[1]
  T2 Zscore (Replica 1): 1.285
[2]
  T2 Zscore (Replica 2): 0.5348

## CC[N+](CC)(CC)CC(=O)Nc1c(C)cccc1C [QX-314]
  T2 Zscore (Replica 1): 1.301
  T2 Zscore (Replica 2): −1.406

## CCCCC/C=C\C[C@@H](O)/C=C/c1cccc(C[C@@H](O)CCCCO)n1 [U-75302]
  T2 Zscore (Replica 1): −0.7777
  T2 Zscore (Replica 2): 0.1088

## CCCC[C@@H](C)[C@@H](OC(=O)C[C@@H](CC(=O)O)C(=O)O)[C@H](C[C@@H](C)C[C@H](O)CCCC[C@@H](O)C[C@H](O)[C@H](C)N)OC(=O)C[C@@H](CC(=O)O)C(=O)O [Fumonisin B1]
  T2 Zscore (Replica 1): −0.2394
  T2 Zscore (Replica 2): 0.6495

## CCCCCCCC/C=C\CCCCCCCC(N)=O [9,10-Octadecenoamide]
  T2 Zscore (Replica 1): −0.1881
  T2 Zscore (Replica 2): 0.6079

## CCCC(=O)Nc1nc2c(ncn2C2O[C@H]3COP(=O)(O)O[C@@H]3[C@@H]2OC(=O)CCC)c(=O)[nH]1 (stereo partly drawn) [Dibutyrylcyclic GMP]
  T2 Zscore (Replica 1): −0.05631
  T2 Zscore (Replica 2): −0.3109

## C1CCC(N=C(NC23CC4CC(CC(C4)C2)C3)N2CCOCC2)CC1.Cl [U-37883A]
  T2 Zscore (Replica 1): 0.6957
  T2 Zscore (Replica 2): −0.1533

## CCCCC/C=C\C=C\[C@@H](O)CCCCCCCC(=O)O [9(S)-HODE]
  T2 Zscore (Replica 1): 0.2881
  T2 Zscore (Replica 2): 0.4475

## C[C@@H]1C[C@@H]([C@H](O)CC2CC(=O)NC(=O)C2)C(=O)[C@@H](C)C1 [Cycloheximide]
  T2 Zscore (Replica 1): −0.5039
  T2 Zscore (Replica 2): −0.9046

## Nc1ncnc2c1ncn2C1CCCO1 (stereo not drawn) [SQ22536]
  T2 Zscore (Replica 1): −0.08797
  T2 Zscore (Replica 2): 0.4583

## CCCC(=O)Nc1ncnc2c1ncn2[C@@H]1O[C@@H]2COP(=O)(O)O[C@H]2[C@H]1OC(=O)CCC [Dibutyrylcyclic AMP]
[3]
  T2 Zscore (Replica 1): 0.1878
[4]
  T2 Zscore (Replica 2): 1.036

## C=C[C@H]1CN2CC[C@H]1C[C@H]2[C@H](O)c1ccnc2ccc(OC)cc12.Cl.O.O [Quinine HCl • 2H2O]
[3]
  T2 Zscore (Replica 1): 0.4225
[4]
  T2 Zscore (Replica 2): 0.3907

## Cc1c(C(=O)NN2CCCCC2)nn(-c2ccc(Cl)cc2Cl)c1-c1ccc(I)cc1 [AM-251]
  T2 Zscore (Replica 1): −0.31
  T2 Zscore (Replica 2): 0.1132

## CC/C=C\C/C=C\C/C=C\CCCCCCCCCC(=O)O [Eicosatrienoic acid (20:3 n-3)]
  T2 Zscore (Replica 1): −0.3626
  T2 Zscore (Replica 2): 0.9257

## CNc1ccc2oc(C[C@H]3O[C@@]4(CC[C@H]3C)O[C@H]([C@H](C)C(=O)c3ccc[nH]3)[C@H](C)C[C@H]4C)nc2c1C(=O)O [A-23187]
  T2 Zscore (Replica 1): 1.014
  T2 Zscore (Replica 2): 0.5039

## CCCCC/C=C\C/C=C\C/C=C\CCCCC(=O)O [Gamma-linolenic acid (18:3 n-6)]
  T2 Zscore (Replica 1): 0.5962
  T2 Zscore (Replica 2): −0.6758

## CC(C)NCC(O)c1ccc(N)c(C#N)c1 (stereo not drawn) [Cimaterol]
[3]
  T2 Zscore (Replica 1): 0.3383
[4]
  T2 Zscore (Replica 2): 0.6592

## CCCCC[C@H](O)/C=C/[C@H]1C=CC(=O)[C@@H]1CCCCCCC(=O)O [Prostaglandin A1]
  T2 Zscore (Replica 1): −0.6811
  T2 Zscore (Replica 2): 0.7319
